In general, IC50 refers to the midpoint of a concentration-inhibition curve.

Protein sequences, listed by entry. Tags and fused reporters are not part of them.
UniProt Q13148, whole entry: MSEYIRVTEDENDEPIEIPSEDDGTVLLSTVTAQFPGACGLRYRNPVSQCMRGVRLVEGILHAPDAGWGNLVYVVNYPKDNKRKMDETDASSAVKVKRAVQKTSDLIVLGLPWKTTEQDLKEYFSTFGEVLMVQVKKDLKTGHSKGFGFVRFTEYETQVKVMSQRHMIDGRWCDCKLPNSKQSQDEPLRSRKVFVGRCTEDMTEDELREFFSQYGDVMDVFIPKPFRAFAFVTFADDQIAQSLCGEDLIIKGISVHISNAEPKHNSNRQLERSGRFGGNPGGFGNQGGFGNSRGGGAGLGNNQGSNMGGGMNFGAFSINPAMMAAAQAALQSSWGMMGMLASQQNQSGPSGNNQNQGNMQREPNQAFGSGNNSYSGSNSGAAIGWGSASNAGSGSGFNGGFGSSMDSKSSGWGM

These results are taken from US20220388962A1 (Biohaven Therapeutics Ltd., priority 2019, published 2022).

Molecules are shown by their SMILES.

This experiment addresses TDP-43 (Homo sapiens, UniProt Q13148). The experiment can be described thus: TDP-43-DNA alpha-screen assay (bt-TAR-32 displacement). As to conditions: read-out: Activity (IC50) in the TDP-43-DNA alpha-screen assay; bt-TAR-32 0.125 nM, 15 ng/ml TDP-43; tested form: HCl (trihydrochloride). How it is done:
Alpha-screen assay: Displacement of bt-TG6 binding was measured using AlphaScreen technology as previously described (Cassel, J. A. et al., Journal of Biomolecular Screening, 2010, 15, 1099-1106; Cassel, J. A.; Reitz, A. B. et al. The effects of small molecule inhibitors of nucleic acid binding to TDP-43 on TDP-43 metabolism and function. Biochimie, 2012, 94, 1974-1981).
Test compounds were diluted in assay buffer (25 mM Tris [pH 7.4], 0.1% bovine serum albumin [BSA], 0.1% Triton X-100) at 4× the desired final concentration. Dilutions of test compound (50 to 0.02 μM in half-log dilutions with a no compound control well) were pre-incubated with TDP-43 (5 μl of 60 ng/mL) pre-bound to AlphaScreen® anti-GST acceptor beads (5 μl of 40 μg/mL) in 15 μl volume for 30 minutes at 23° C. with shaking. Assays were initiated by the addition of 5 μl bt-TAR-32 (5′-CTGCTTTTTGCCTGTACTGGGTCTCTGTGGTT-3′) 0.5 nM pre-bound to AlphaScreen® strepavidin donor beads (40 μg/mL). After incubation in the dark at 23° C. for 90 minutes with shaking, the AlphaScreen® signal was measured on a Synergy 2 plate reader (BioTek, Winooski, Vt.). IC50 values were determined from nonlinear regression fits of the data to a Sigmoidal dose response variable slope model in GraphPad Prism. […]

Regarding `COc1ccc(-c2cc(NCCCN(C)CCCN)c3cc(OC)c(OC)cc3n2)cc1` [Example 94], the IC50 amounted to 50 nM.
